The values below are quoted from earlier work in patent US20050245504A1, “Treatment of diseases with combinations of alpha 7 Nicotinic Acetylcholine Receptor agonists and other compounds” (priority 2002, published 2005).

SMILES strings stand for the structures.

The conditions of this series: amyotrophic lateral sclerosis.

For `Nc1nc2ccc(OC(F)(F)F)cc2s1` [Riluzole], the survival of patients entry is listed as “prolong the survival”.
